This note sets out measurements from paper PMC6420870 (Neuropharmacology, 2019).

By UniProt entry, the sequences of proteins in these tests, tags left out. Residues count along the entry.
UniProt P31424, 21-1203: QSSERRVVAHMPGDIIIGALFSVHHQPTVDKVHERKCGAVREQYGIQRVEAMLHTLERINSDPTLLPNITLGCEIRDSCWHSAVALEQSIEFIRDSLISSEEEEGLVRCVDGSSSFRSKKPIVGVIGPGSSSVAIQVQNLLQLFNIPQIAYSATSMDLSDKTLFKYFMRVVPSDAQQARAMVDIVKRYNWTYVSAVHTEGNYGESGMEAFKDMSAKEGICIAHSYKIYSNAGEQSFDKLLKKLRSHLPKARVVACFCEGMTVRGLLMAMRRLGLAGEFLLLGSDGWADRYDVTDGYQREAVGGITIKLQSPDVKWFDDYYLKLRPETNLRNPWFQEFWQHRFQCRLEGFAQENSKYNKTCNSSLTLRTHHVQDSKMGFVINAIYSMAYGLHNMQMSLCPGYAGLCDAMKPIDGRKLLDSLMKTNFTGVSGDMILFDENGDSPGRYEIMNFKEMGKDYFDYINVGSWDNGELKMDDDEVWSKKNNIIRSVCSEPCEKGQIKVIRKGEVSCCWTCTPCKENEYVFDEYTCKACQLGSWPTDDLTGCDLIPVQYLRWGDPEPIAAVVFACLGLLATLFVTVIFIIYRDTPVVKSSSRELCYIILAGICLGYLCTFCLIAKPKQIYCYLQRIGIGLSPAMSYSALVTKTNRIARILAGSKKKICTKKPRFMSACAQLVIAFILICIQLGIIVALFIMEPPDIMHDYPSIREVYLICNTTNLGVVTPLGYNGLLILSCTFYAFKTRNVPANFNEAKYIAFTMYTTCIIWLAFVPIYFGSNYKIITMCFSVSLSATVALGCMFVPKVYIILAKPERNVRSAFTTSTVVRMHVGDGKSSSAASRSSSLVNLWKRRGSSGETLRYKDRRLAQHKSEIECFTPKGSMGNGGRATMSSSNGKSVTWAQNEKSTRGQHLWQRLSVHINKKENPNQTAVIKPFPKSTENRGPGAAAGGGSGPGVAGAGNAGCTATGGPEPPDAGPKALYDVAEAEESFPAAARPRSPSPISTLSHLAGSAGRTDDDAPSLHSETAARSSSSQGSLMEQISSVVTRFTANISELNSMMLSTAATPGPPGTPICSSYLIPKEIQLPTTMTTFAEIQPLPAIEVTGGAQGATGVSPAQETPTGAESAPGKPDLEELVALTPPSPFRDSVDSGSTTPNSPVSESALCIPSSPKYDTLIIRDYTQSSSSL

Assay [1] addresses T1, rat mGlu5 (HEK293A-rat mGlu5-low) (Rattus norvegicus, UniProt P31424). The assay can be described thus: IP1 accumulation. The format is cell-based.
In assay [2] the target is T1, rat mGlu5 (HEK293A-rat mGlu5-low). The assay can be described thus: [3H]methoxy-PEPy inhibition binding, intact adherent cells. The format is cell-based.

Structures can show the parent of a compound that is named as a salt.

The term IC50 denotes the midpoint of a concentration-inhibition curve. The low end stands for inhibition by little substance, the high end for a need for much substance. What is called Ki is the equilibrium dissociation constant of an inhibitor or competing ligand from its target. Molecule `Cc1nc(C#Cc2cccnc2)cs1` [MTEP, 3-((2-methyl-1,3-thiazol-4-yl)ethynyl)pyridine hydrochloride] had an IC50 in assay [1] of 43.7 nM. In assay [2], this molecule had a Ki of 63.1 nM.
For the molecule `Cc1cccc(C#Cc2ccccc2)n1` [MPEP, 2-Methyl-6-(phenylethynyl)pyridine], it took 13.8 nM to reach half-maximal inhibition in assay [1] (IC50). Further, in assay [2], the Ki was 5.5 nM.
